Screening results as filed in PubChem BioAssay.
In the library only some 2.5% were active in any assay of this set; here they are far more common.
miR-21 FLuc: miR-21 reporter, rising signal. HeLa miR-21 FLuc reporter, luciferase, 48 h. Potency, µM (titrated, usually from 38.3 µM), without a hit: at the top dose reporter change, positive = more light. 340,000 tested, under 10 active. AID 2288; active = well fitted rising curve with a large enough effect; inconclusive = small, poorly fitted or top-dose-only effect; inactive = no such curve, though single readings can be large or run the other way;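 also: % of control where 0% means no effect; miR-21 action dims this reporter so a rising signal means less miR-21 action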
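Luminescence from a firefly luciferase reporter carrying a miR-21 binding site downstream, stably expressed under a CMV promoter in HeLa cells that make miR-21 endogenously, reports miRNA modulation after 48 h compound exposure up to approximately 40uM final.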
ClpP mod: qHTS Assay for Activators of ClpP; Potency, µM (doses to about 57.5 µM), for the others: top-dose activity change, negative = active; purified B. subtilis ClpP, FRET peptide cleavage, 20 min; ATP-dependent Clp protease proteolytic subunit (Bacillus subtilis (strain 168)), P80244; actives 1.9% (n = 340,000); active = well fitted falling curve with a large enough effect; inconclusive = small, poorly fitted or top-dose-only effect; inactive = no such curve, though single readings can be large or run the other way; also: potency is read from the fitted curve at half-maximal effect; the source files actives as falling curves though it sought activators and does not explain the sign; nearly all actives have a fitted effect of over 65% in size
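Buffer: 100 mM Tris/HCl pH8, 100 mM KCl, 0.05% low protease BSA, 2.5% glycerol, 0.01% Tween-20. ClpP 10 microg/mL final; 20 min RT; delta FRET normalized to ADEP and DMSO controls.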
TrxR1 inh: inhibitors of rat thioredoxin reductase 1 | O89049 | recombinant rTrxR1, NADPH fluorescence consumption, selenite substrate | Potency, µM (top dose mostly 114 µM), without a hit: top-dose activity change, negative = inhibition, most hits filed as inhibitors | actives 1% (n = 390,000); also: potency is read from the fitted curve at half-maximal effect; % is scaled to controls: 0 for no effect and ±100 for the full control effect; nearly all actives have a fitted effect of over 65% in size
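Rat TrxR1 (90 nM in the dispensed reagent) was pre-reduced with 400 uM NADPH for 5 min at room temperature, then incubated with compound for 15 min. After 400 uM selenite was added, NADPH fluorescence (Ex 340/Em 450 nm) was followed for 8 min.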
Anesthetic bind: binds horse apoferritin like a general anesthetic. P02791. AID 485281. Potency, µM (titrated, usually from 77.5 µM), for inactives: top-dose activity change, negative = displacement, most hits filed as inhibitors. apoferritin/1-aminoanthracene competitive binding, fluorescence. actives 0.074% (n = 350,000); also: potency is read from the fitted curve at half-maximal effect; % is scaled to controls: 0 for no effect and ±100 for the full control effect; nearly all actives have a fitted effect of over 20% in size
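Apoferritin-based anesthetic binding model; compound displacement of fluorescent 1-AMA measured as endpoint fluorescence after 10 minutes at room temperature, scaled to free-ligand and complex controls.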
TrxR1 substrate: rat thioredoxin reductase 1 substrate activity | O89049 | purified TrxR1 substrate turnover, NADPH consumption readout | Potency, µM (highest dose often 114 µM), inactives show at the top dose activity change, negative = substrate turnover | actives 0.01% (n = 390,000) | AID 588456; also: potency is read from the fitted curve at half-maximal effect; % is scaled to controls: 0 for no effect and ±100 for the full control effect; nearly all actives have a fitted effect of over 50% in size
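Rat TrxR1, dispensed at 90 nM, was prereduced with 400 uM NADPH (final) for 5 min at ~22 deg C, then incubated with compound 15 min before 400 uM selenite. A first-read NADPH fluorescence drop versus no-compound background flagged substrates.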
Active calls of the source: *; ? = inconclusive; nt = no result given; [ ] = another dose, or the depositor's remark. Unless noted, calls follow the shape of the dose curve; as a rule, active = well fitted curve in the direction sought with a large enough effect; inconclusive = small, poorly fitted or top-dose-only effect, or another doubt; inactive = no such curve, though single readings can be large; an effect the other way counts as inactive or inconclusive.

entry	mol	miR-21 FLuc	ClpP mod	TrxR1 inh
1	O=C1c2ccccc2NC(c2ccccn2)N1c1ccccc1F (stereo not drawn)	-9%	32µM*	48%[57.1 µM]
2	Cc1ccc(N2C(=O)c3ccccc3NC2c2ccccc2O)cc1 (stereo not drawn)	-33%	4%	1%[57.1 µM]
3	Cc1cccc(C2Nc3ccccc3C(=O)N2c2ccc(F)cc2)n1 (stereo not drawn)	-26%	32µM*	39%
4	CCn1cc(C(=O)NCCc2ccc(OC)c(OC)c2)c(=O)c2cc(S(=O)(=O)N3CCc4ccccc4C3)ccc21	2%	?	27%
5	CSCC[C@H](NC(=O)[C@H](CO)NC(=O)[C@H](Cc1ccc(O)cc1)NC(=O)[C@@H](N)CO)C(=O)N[C@@H](CCC(=O)O)C(=O)N[C@@H](Cc1cnc[nH]1)C(=O)N[C@@H](Cc1ccccc1)C(=O)N[C@@H](CCCNC(=N)N)C(=O)N[C@@H](Cc1c[nH]c2ccccc12)C(=O)NCC(=O)N[C@@H](CCCCN)C(=O)N1CCC[C@H]1C(=O)N[C@H](C(=O)NCC(=O)N[C@@H](CCCCN)C(=O)N[C@@H](CCCCN)C(=O)N[C@@H](CCCNC(=N)N)C(=O)N[C@@H](CCCNC(=N)N)C(=O)N1CCC[C@H]1C(=O)N[C@H](C(=O)N[C@@H](CCCCN)C(=O)N[C@H](C(=O)N[C@@H](Cc1ccc(O)cc1)C(=O)N1CCC[C@H]1C(=O)N[C@@H](CC(N)=O)C(=O)NCC(=O)N[C@@H](C)C(=O)N[C@@H](CCC(=O)O)C(=O)N[C@@H](CC(=O)O)C(=O)N[C@@H](CCC(=O)O)C(=O)N[C@@H](CO)C(=O)N[C@@H](C)C(=O)N[C@@H](CCC(=O)O)C(=O)N[C@@H](C)C(=O)N[C@@H](Cc1ccccc1)C(=O)N1CCC[C@H]1C(=O)N[C@@H](CC(C)C)C(=O)N[C@@H](CCC(=O)O)C(=O)N[C@@H](Cc1ccccc1)C(=O)O)C(C)C)C(C)C)C(C)C	nt	nt	nt
6	COc1cc2[nH]c3c(Cl)ncnc3c2cc1OC	-3%	?	-2%
7	COc1cc2[nH]c(Cl)c([N+](=O)[O-])c2cc1OC	-4%	nt	1.4µM*
8	COc1ccc(N2CC(NC(=O)/C=C\c3ccc4c(c3)OCO4)CC2=O)cc1 (stereo not drawn)	11%	28µM*	4%[57.1 µM]
9	O=C(/C=C\c1ccc2c(c1)OCO2)NC1CC(=O)N(c2ccccc2)C1 (stereo not drawn)	23%	4%	-2%[57.1 µM]
10	CC(=O)n1cc(N(C(=O)CCl)c2ccccc2)c2ccccc21	?	nt	0.63µM*

entry	Anesthetic bind	TrxR1 substrate
1	75%	130%[57.1 µM]
2	6%	3%[57.1 µM]
3	44%	155%
4	-20%	3%
5	0%	nt
6	4%	-5%
7	4%	3%
8	2%	12%[57.1 µM]
9	?	7%[57.1 µM]
10	-8%	0%

Other results
entry	mol	miR-21 FLuc	ClpP mod	TrxR1 inh
11	CC(=O)n1cc(CO)c2ccccc21	1%	0%	9%
12	O=Cc1[nH]c2ccccc2c1N(C(=O)CCl)c1ccc([N+](=O)[O-])cc1	30%	nt	11µM*
13	O=C(CCl)N(CCCNC(=O)C(F)(F)F)c1ccc([N+](=O)[O-])cc1	?	nt	?
14	CC(=O)n1cc(N(C(=O)CCl)c2ccc([N+](=O)[O-])cc2)c2ccccc21	?	nt	1.1µM*
15	COc1ccc(CCn2c3c(c(=O)[nH]c2=O)C(NC(=O)c2ccc(C(C)(C)C)cc2)(C(F)(F)F)C(=O)N3)cc1OC (stereo not drawn)	-5%	-3%	14%
16	CCCCC(=O)N1CCc2cc(OC)c(OC)cc2C1COc1ccc(C(=O)OCC)cc1 (stereo not drawn)	4%	0%	4%[57.1 µM]
17	COc1cc(OC)cc(C(=O)NCC(=O)OCC(=O)c2cc(C)n(Cc3ccco3)c2C)c1	-9%	10µM*	-11%
18	O=C(Nc1nccs1)c1ccc(S(=O)(=O)NCC2CCCCC2)cc1	17%	7%	14%
19	Cc1ccc(-c2ccc(/C=N/NC(=O)CN3CCCC3)o2)cc1Cl	-27%	-6%	-11%[57.1 µM]
20	COC(=O)N/N=C/c1ccc(-c2ccc(C)c(Cl)c2)o1	-46%	-3%	-15%

entry	Anesthetic bind	TrxR1 substrate
11	-6%	-4%
12	-20%	-6%
13	-4%	16%[57.1 µM]
14	-9%	-1%
15	0%	4%
16	-14%	1%[57.1 µM]
17	-12%	-5%
18	14µM*	6%
19	18µM*	5%[57.1 µM]
20	-3%	-11%

Remaining list, next part
entry	mol	miR-21 FLuc	ClpP mod	TrxR1 inh
21	CCOC(=O)c1nc(NCc2ccc(Cl)cc2)c2c(C)noc2n1	1%	-10%	19%[57.1 µM]
22	O=C1CC(C(=O)Nc2ccc(O)c(C(=O)O)c2)C(c2ccccc2)O1 (stereo not drawn)	-5%	25µM*	35%
23	CN(C)CCNc1nccc(N2CCN(C)CC2)n1	nt	-19%	12%
24	CC(=O)Nc1ccc(S(=O)(=O)N(C)CC(=O)OCC(=O)NNC(=O)c2ccccc2F)cc1	nt	11µM*	-10%
25	COc1ccc(-c2nc3nc(C)cc(N4CCN(c5cccc(C(F)(F)F)c5)CC4)n3n2)cc1	-6%	-28%	23%
26	Cc1ccc(S(=O)(=O)c2ccc([N+](=O)[O-])cn2)cc1	?	nt	0.45µM*
27	O=c1c(C(c2ccc(O)cc2)c2c(O)nc3n(c2=O)CCS3)c(O)nc2n1CCS2	3%	-4%	3.2µM*
28	O=c1c(C(c2ccc(O)cc2)c2c(O)nc3n(c2=O)CCCS3)c(O)nc2n1CCCS2	-2%	1%	3.5µM*
29	O=c1c(Cc2ccccc2)c(O)nc2n1CCS2	-1%	0%	-7%
30	O=c1c(C(c2c(O)nc3n(c2=O)CCS3)c2cccc3ccccc23)c(O)nc2n1CCS2	-3%	1%	11µM*

entry	Anesthetic bind	TrxR1 substrate
21	-9%	4%[57.1 µM]
22	-3%	119%
23	nt	0%
24	nt	-6%
25	-3%	3%
26	-5%	-8%
27	-19%	-7%
28	-10%	12%
29	-7%	-8%
30	-4%	-8%

Ordered by length of the SMILES (high to low): four of the compounds above
entry	mol	miR-21 FLuc	ClpP mod	TrxR1 inh
25	COc1ccc(-c2nc3nc(C)cc(N4CCN(c5cccc(C(F)(F)F)c5)CC4)n3n2)cc1	-6%	-28%	23%
30	O=c1c(C(c2c(O)nc3n(c2=O)CCS3)c2cccc3ccccc23)c(O)nc2n1CCS2	-3%	1%	11µM*
22	O=C1CC(C(=O)Nc2ccc(O)c(C(=O)O)c2)C(c2ccccc2)O1 (stereo not drawn)	-5%	25µM*	35%
21	CCOC(=O)c1nc(NCc2ccc(Cl)cc2)c2c(C)noc2n1	1%	-10%	19%[57.1 µM]

entry	Anesthetic bind	TrxR1 substrate
25	-3%	3%
30	-4%	-8%
22	-3%	119%
21	-9%	4%[57.1 µM]

Further entries
entry	mol	miR-21 FLuc	ClpP mod	TrxR1 inh
31	Cc1ccc(C(c2c(O)nc3n(c2=O)CCS3)c2c(O)nc3n(c2=O)CCS3)cc1	-3%	nt	2.8µM*
32	CCCCN(CCCC)CCNC(=O)Cn1nc(CC)n2c(cc3sccc32)c1=O	-8%	-1%	33%
33	CC1=C(c2ccc(F)cc2)S(=O)(=O)N=C1N1CCC(C(=O)NCCc2cccc(C)c2)CC1	1%	0%	13%[57.1 µM]
34	Cc1cc(N2CCC(C)CC2)nc2ccc(N3C(=O)CCC3=O)cc12	-17%	40µM*	8%
35	COc1ccc(C(=O)Nc2ccc3nc(N4CCC(C)CC4)cc(C)c3c2)cc1	4%	?	14%
36	Cc1ccc(CN(Cc2ccco2)C(=O)c2ccccc2Br)o1	17%	8%	4%
37	COCc1cc(=O)n2[nH]c(-c3cccc(Br)c3)cc2n1	-44%	?	15%

entry	Anesthetic bind	TrxR1 substrate
31	1%	13%[57.1 µM]
32	31%	9%
33	?	3%[57.1 µM]
34	-18%	89%
35	8%	29%
36	8%	-1%
37	-5%	19%[57.1 µM]
